# In BindingDB's records for doi:10.1007/bf02245606 (Janssen Research Foundation, 1996):
# The chains behind the UniProt entries cited, without tags or fusion partners.
# UniProt P08913, whole entry: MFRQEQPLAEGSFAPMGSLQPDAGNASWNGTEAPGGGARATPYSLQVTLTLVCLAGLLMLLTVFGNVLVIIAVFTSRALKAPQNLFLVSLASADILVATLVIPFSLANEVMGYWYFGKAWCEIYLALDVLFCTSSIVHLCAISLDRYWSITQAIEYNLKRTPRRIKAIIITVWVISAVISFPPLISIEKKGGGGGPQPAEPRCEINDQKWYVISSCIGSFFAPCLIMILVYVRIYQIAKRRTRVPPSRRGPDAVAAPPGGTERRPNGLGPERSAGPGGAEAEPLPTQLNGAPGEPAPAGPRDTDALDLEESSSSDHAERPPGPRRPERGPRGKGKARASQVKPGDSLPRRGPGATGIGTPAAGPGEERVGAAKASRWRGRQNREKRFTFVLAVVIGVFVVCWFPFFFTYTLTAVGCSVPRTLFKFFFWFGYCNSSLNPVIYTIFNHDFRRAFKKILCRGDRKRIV
# Target: Alpha-2A adrenergic receptor (Homo sapiens, UniProt P08913)
row,Compound,Ki
1,"O=C1Cc2cc(CCN3CCN(c4nsc5ccccc45)CC3)c(Cl)cc2N1 [5-[2-(4-Benzo[d]isothiazol-3-yl-piperazin-1-yl)-ethyl]-6-chloro-1,3-dihydro-indol-2-one]",160 nM
2,O=C1NCCN1CCN1CCC(c2cn(-c3ccc(F)cc3)c3ccc(Cl)cc23)CC1 [1-[2-[4-[5-chloro-1-(4-fluorophenyl)-indol-3-yl]-1-piperidyl]ethyl]imidazolidin-2-one],640 nM
